Results as given in PubChem BioAssay (NCI).
This is a selection; strong and weak results do not stand in their true shares. Some compounds were tested as several samples or in several runs, with calls that do not always agree. The source made the active and inactive calls. Cut-off read from the data, not from the text of the source: active = growth inhibition above about 70%; inactive = the rest.

Test: NCI Yeast Anticancer Drug Screen. Data for the mlh1 rad18 strain (AID 175)
Details: S. cerevisiae mlh1 rad18 strain growth inhibition; at 50.0 µM; stronger effect = higher value

| SMILES | growth inhibition |
| --- | --- |
| CCOC(=O)NP(=O)(NC(=O)NOC)NC(=O)OCC | inactive: -3.8% |
| CC=C(c1ccc(N(CC)CC)cc1)c1ccc(N(CC)CC)cc1 | inactive: 11.1% |
| N#CCN/C(N)=N/[N+](=O)[O-] | inactive: -0.3% |
| C#CCOP(=O)(CCl)N(CCCl)CCCl (stereo unspecified) | inactive: 28.1% |
| O=P1(N(CCCl)CCCl)NCc2ccccc2O1 (stereo unspecified) | inactive: 6.7% |
| Cc1ccc(C)c(S(=O)(=O)N(CCCl)CCCl)c1 | inactive: 16.9% |
| Fc1cccc(NC2=NCC(CI)S2)c1 (stereo unspecified) | inactive: -5.05% |
| CC(C)(C(=O)c1cc([N+](=O)[O-])cc([N+](=O)[O-])c1)c1cc([N+](=O)[O-])cc([N+](=O)[O-])c1 | inactive: 8.05% |
| CCCC1OP(N)(=O)OCC1CC (stereo unspecified) | inactive: -0.4% |
| Fc1ccc(NC2=NCC(CI)S2)c(F)c1 (stereo unspecified) | inactive: -20.8% |
| CC(=O)SCC(Cl)Cl | inactive: -1.7% |
| CCOP1OCC(C)O1 (stereo unspecified) | inactive: 27.8% |
| O=C(Nc1cc([N+](=O)[O-])cc([N+](=O)[O-])c1)c1cc([N+](=O)[O-])cc([N+](=O)[O-])c1 | inactive: 16.1% |
| CS(=O)(=O)OC1CSCC1OS(C)(=O)=O (stereo unspecified) | inactive: 9.45% |
| N/C(=N\[N+](=O)[O-])NNC=O | inactive: 3% |
| NC1=NC(c2ccccc2[N+](=O)[O-])P(=O)(Nc2ncccn2)S1 (stereo unspecified) | inactive: -37.1% |
| O=C(O)c1cccc(N(CCCl)CCCl)c1 | inactive: 14.3% |
| O=[As]c1ccc(F)cc1 (stereo unspecified) | active: 99% |

| SMILES | growth inhibition |
| --- | --- |
| CCOC(=O)NC(c1ccc(OC)c(OC)c1)P(=O)(O)Nc1ncn[nH]1 (stereo unspecified) | inactive: 31.9% |
| CCCOP(=S)(Nc1ccc(C)cn1)OCCC | inactive: -0.65% |
| c1ccc2c(c1)N=C1CCCC3CCCCC123 (stereo unspecified) | inactive: 45.2% |
| CCN(CC)P1OCC(C)O1 (stereo unspecified) | inactive: -7.6% |
| CC[As](=O)(O)O | inactive: 1.85% |
| C[As](C)SC(C)(C)C(N)C(=O)O (stereo unspecified) | inactive: -18.9% |
| CCCCOP(N)(=O)OCCCC | inactive: 24.1% |
| O=[N+]([O-])c1ccc(N(CCS)c2ccc([N+](=O)[O-])cc2[N+](=O)[O-])c([N+](=O)[O-])c1 | inactive: -10.9% |
| CC(=O)OC1CNP(=O)(N(CCCl)CCCl)OC1 (stereo unspecified) | inactive: 37.4% |
| Cc1c([N+](=O)[O-])c(C)c(S(=O)(=O)c2c(C)c([N+](=O)[O-])c(C)c([N+](=O)[O-])c2C)c(C)c1[N+](=O)[O-] | inactive: 12.3% |
| CCOP1(=O)N=C(/N=C(\N)N(CC)CC)N(C)C1(C)C (stereo unspecified) | inactive: -49.5% |
| O=C(O)C1C[N+]12C=CC=CC2=O (stereo unspecified) | inactive: -7.5% |
| FC1(F)SC(Cl)C(Cl)(Cl)C1(F)F (stereo unspecified) | inactive: 24.2% |
| O=P1(N(CCCl)CCCl)NC(CO)CO1 (stereo unspecified) | inactive: 19.7% |
| O=[As]c1ccc(NC(=O)c2ccccc2)cc1 (stereo unspecified) | inactive: 18.6% |
| CCCCCCCCCCCCCCCC(=O)OCC(COP(=O)(Oc1ccccc1)N(CCCl)CCCl)OC(=O)CCCCCCCCCCCCCCC (stereo unspecified) | inactive: 8.4% |
| BrC1C2(SCCS2)[C@@H]2C[C@@H](c3ccccc32)C12SCCS2 (stereo partly specified) | inactive: 6.6% |
| ClC1CCCCC1SCCCC1OCCO1 (stereo unspecified) | inactive: 3% |
